Data as given in patent EP3539977B1, “ENZYMES WITH CHLOROGENIC ACID ESTERASE ACTIVITY AND FERULOYL ESTERASE ACTIVITY” (SternEnzym GmbH & Co. KG, priority 2014, dated 2016).

Sequences of proteins named here, by UniProt entry; tags and fusion partners are left off. Residues count along the entry.
UniProt A0A060S684, 22-585, stated change not applied: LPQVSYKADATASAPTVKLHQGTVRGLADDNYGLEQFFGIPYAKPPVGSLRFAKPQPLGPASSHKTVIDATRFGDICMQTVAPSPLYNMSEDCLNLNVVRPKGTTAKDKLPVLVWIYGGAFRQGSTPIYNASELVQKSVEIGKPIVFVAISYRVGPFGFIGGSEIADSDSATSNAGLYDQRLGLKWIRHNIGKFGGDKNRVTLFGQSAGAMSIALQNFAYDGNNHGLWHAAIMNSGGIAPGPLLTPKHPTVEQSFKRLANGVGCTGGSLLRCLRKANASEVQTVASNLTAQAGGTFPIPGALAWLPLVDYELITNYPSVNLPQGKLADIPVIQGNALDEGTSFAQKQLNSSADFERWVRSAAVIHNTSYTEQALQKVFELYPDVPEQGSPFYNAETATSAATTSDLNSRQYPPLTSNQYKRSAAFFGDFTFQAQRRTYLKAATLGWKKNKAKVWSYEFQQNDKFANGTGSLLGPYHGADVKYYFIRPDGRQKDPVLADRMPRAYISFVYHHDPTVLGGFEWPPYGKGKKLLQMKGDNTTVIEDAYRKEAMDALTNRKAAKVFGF

Molecular target: T1, UmChlE (Mycosarcoma maydis, UniProt A0A060S684, P492L)
T1 construct: purification of the chlorogenic acid esterase UmChlE from culture supernatant of U. maydis was accomplished by three complementary separation steps; made in house; host or cells: Ustilago maydis itself (native producer), culture supernatant; Q Sepharose FF, preparative IEF, polyamide column
Assay type: biochemical, Ustilago maydis
Description: Chlorogenic acid esterase activity was determined at 37 °C in 50 mM Tris buffer at pH 7.5 using chlorogenic acid and methyl ferulate as standard substrates, unless otherwise stated. The release of the corresponding free acids was analyzed with HPLC-UV. If appropriate, the hydrolysis of other benzoic and cinnamic acid ester derivatives as well as feruloylated saccharides was measured with the same method. After incubation for one hour the reaction was terminated by doubling the reacting volume with acetonitrile. Samples were centrifuged (15 min, 15.000 × g) before injection to the HPLC (Chromolith Performance RP-18e reverse-phase column, 100 × 4.6 mm, Merck, Darmstadt, Germany). […] Substance elution was detected at 232 nm (benzoic and 3-hydroxybenzoic acid), 254 nm (4-hydroxybenzoic and vanillic acid), 275 nm (cinnamic and gallic acid), 306 nm (p-coumaric acid) and 323 nm (ferulic, caffeic, chlorogenic and sinapic acid) using a Shimadzu UV-Vis detector (SPD-10A VP, Shimadzu Deutschland GmbH, Duisburg, Germany). One unit of enzyme activity was defined as the amount of enzyme releasing one µmοl of free acid per minute under the specified conditions. […]
Remaining enzyme activity was measured after 1 h incubation with 1mM, or, in a further experiment, 1.95 mM methyl ferulate and different metal ions as well as inhibitors in concentrations listed above (at 37 °C, 50 mM Tris buffer pH 7.5). […]

Compound: O=S(=O)(F)Cc1ccccc1 [PMSF, phenylmethylsulfonylfluoride]
- Relative esterase activity (1 mM additive, methyl ferulate, 1 h, 37 °C, 50 mM Tris pH 7.5): 36 (2.01) %
- enzyme activity was inhibited (1 mM inhibitor): 64%
